According to patent US7511133B2 (dated 2009):

Target: human A2A adenosine receptors (Homo sapiens, UniProt P29274)
Assay: Displacement of [^3H]CGS21680 binding, human A2A adenosine receptors in CHO cells (agonist radioligand)

Ki: > 1000 nM
SMILES: CCNC(=O)[C@H]1O[C@@H](n2cnc3c(NC(=O)Nc4ccc(S(=O)(=O)N(C)C(C)C)cc4)ncnc32)C(O)C1O (stereo partly drawn) [Compound 97, 1-Deoxy-1-[6-[[[[4-[N-(1-methylethyl)-N-(methyl)-aminosulfonyl]phenyl]amino]carbo-nyl]amino]-9H-purin-9-yl]-N-ethyl-β-D-ribofuranuronamide]
